These are literature values, as cited in US4318847A, “Physiologically active tetrapeptides” (Zaidan Hojin Biseibutsu Kagaku Kenkyu Kai, priority 1979, dated 1982).

The target in this series is chymotrypsin (Bos taurus, UniProt P00766). To be noted: prior art; cited from earlier work.

As for `CC(C)C[C@H](NC(=O)[C@@H](NC(=O)N[C@@H](Cc1ccccc1)C(=O)O)[C@@H]1CCN=C(N)N1)C(=O)N[C@H](C=O)Cc1ccccc1` [chymostatin], the inhibition of chymotrypsin entry is “inhibit”.
